# Only a part is listed here, and it is no random draw. The source made the active and inactive calls.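 How the source made its calls: active means superoxide signal below 65% of the plate average of sample wells; inactive means the rest.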
# Test: superoxide lowering in aged yeast cells, confirmation, cherry picked compounds (AID 434994);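 further: cells aged with compound for 7 days at 30 degrees C before staining; 100% equals mean DHE fluorescence of all compound wells on the plate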
# Conditions: S. cerevisiae aging, superoxide DHE fluorescence; at 10 µM; active compounds read low
compound,measurement,value
O=C(OC1CN2CCC1CC2)c1ccccc1 (stereo unspecified),superoxide response (% of plate),inactive: 98.5%

# From PubChem BioAssay AID434994 (NMMLSC, 2010)
